# miR-21 reporter = miR-21 reporter, rising signal | HeLa miR-21 FLuc reporter, luciferase, 48 h | Potency, µM (top dose mostly 38.3 µM), inactives show at the top dose reporter change, positive = more light | 340,000 tested, under 10 active | AID 2288; active = well fitted rising curve with a large enough effect; inconclusive = small, poorly fitted or top-dose-only effect; inactive = no such curve, though single readings can be large or run the other way;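 further: % of control where 0% means no effect; miR-21 action dims this reporter so a rising signal means less miR-21 action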
#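 Using DMEM plus 10% FBS, HeLa miR-21-FLuc cells are incubated with test compounds (final up to about 40uM) for 48 hours; firefly luciferase signal is then imaged following reagent-mediated lysis.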
# ALDH1A1 inh = ALDH1A1 (human) enzyme inhibition. P00352. Purified ALDH1A1, NADH fluorescence, propionaldehyde substrate. Potency, µM (series often up to 75.3 µM), for the others: at the highest dose activity, negative = inhibition, actives largely listed as inhibitors. actives 7.3% (n = 220,000). AID 1030; active = well fitted inhibition curve with a large enough effect, not every such curve was filed as active; inconclusive = small, poorly fitted or top-dose-only effect, or another doubt; inactive = no such curve, though single readings can be large or run the other way;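 note: potency is the fitted concentration of half-maximal effect; plate controls were no enzyme wells and a reference inhibitor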
# Sfp PPTase inh = Sfp phosphopantetheinyl transferase inhibition. 3.5% of 310,000 active. AID 1490. Potency, µM, inactives show max response, negative = inhibition, actives largely listed as inhibitors. Biochemical Sfp PPTase activity, qHTS; active = well fitted inhibition curve with a large enough effect; inconclusive = small, poorly fitted or top-dose-only effect, or another doubt; inactive = no such curve, though single readings can be large or run the other way;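 note: the enzyme is Sfp with the accession as filed and its product quenches rhodamine fluorescence; potency is the fitted concentration of half-maximal effect; 0% = enzyme reaction without inhibitor and -100% = no enzyme wells; top concentration of the series not given in the record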
#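 After 15 min at room temperature with compound, 15 nM Sfp received 5 uM rhodamine-CoA plus 12.5 uM BHQ-2-ybbR (50 mM Hepes pH 7.6, 10 mM MgCl2). Rate came from the fluorescence difference over 30 min, ex 525/em 598 nm.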
# Lamin A splicing = changes lamin A minigene splicing in HeLa cells. HeLa LMNA splicing GFP/RFP minigene ratio, 48 h. actives 0.01% (n = 200,000). Potency, µM (top dose mostly 46.1 µM), without a hit: at the top dose ratio change, negative = inhibition, most hits filed as inhibitors; active = well fitted inhibition curve with a large enough effect in the signal ratio, with a control signal flat, not every such curve was filed as active; inconclusive = small, poorly fitted or top-dose-only effect, or effect the other way, or a change in a side signal; the % refers to the signal ratio; note: potency is the fitted concentration of half-maximal effect; % is set by controls: 0 for no effect and ±100 for the full control effect
#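 S3 HeLa stable clones carrying a lamin A-EGFP splicing minigene plus DsRed2 were seeded at 600 cells/well in Opti-MEM with 2% FBS, pin-dosed and incubated 48 h at 37°C. Acumen cytometry (488 nm) gave the GFP/RFP total-intensity ratio.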
# G9a inh = blocks human histone lysine methyltransferase G9a; Potency, µM (titrated, usually from 102 µM), for inactives: at the top dose activity, negative = inhibition, hits mostly inhibitors; AID 504332; actives 8.8% (n = 350,000); G9a H3K9 monomethylation, AlphaScreen, 2 h; note: potency is the fitted concentration of half-maximal effect; % is set by controls: 0 for no effect and ±100 for the full control effect; nearly all actives have a fitted effect of over 75% in size
#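 Readings reflect AlphaScreen signal from monomethyl-H3K9 antibody detection. HMT at 20 nM; substrate b-H3K9 500 nM; cofactor SAM 20 uM; 2 h RT reaction; compounds tested as titrations in qHTS with 15 min preincubation.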
# JMJD2E inh = inhibitors of human JMJD2E histone demethylase; AID 2147; JMJD2E catalytic domain, FDH-coupled NADH fluorescence (FDH is formaldehyde dehydrogenase); B2RXH2; Potency, µM (titrated, usually from 57.1 µM), without a hit: at the top dose activity change, negative = inhibition, usual class: inhibitors; actives 1.6% (n = 230,000); active = well fitted inhibition curve with a large enough effect, not every such curve was filed as active; inconclusive = small, poorly fitted or top-dose-only effect, or another doubt; inactive = no such curve, though single readings can be large or run the other way;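 note: potency is the fitted concentration of half-maximal effect; 0% = wells with enzyme and -100% = buffer wells without enzyme; nearly all actives have a fitted effect of over 50% in size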
# Numbers without * were called inactive; ? = inconclusive; . = no result given; [ ] = remark or other dose. Hits are enriched below; roughly 13% of the tested compounds scored in any of these assays. Unless noted, calls come from the whole dose curve; as a rule, active = well fitted curve in the direction sought with a large enough effect; inconclusive = small, poorly fitted or top-dose-only effect, or another doubt; inactive = no such curve, though single readings can be large; an effect the other way counts as inactive or inconclusive.
SMILES,miR-21 reporter,ALDH1A1 inh,Sfp PPTase inh,Lamin A splicing,G9a inh,JMJD2E inh
Cc1c(C)c2ccc(OCC(=O)NC3CCN(Cc4ccccc4)CC3)cc2oc1=O,-2%,.,21%,.,20%,.
COc1ccc(C2Nc3ccccc3C(=O)N2Cc2ccco2)cc1COc1ccc(F)cc1 (stereo not drawn),13%,2.5µM*,40µM*,?,-43%[59 µM],14%
CCN(C(=O)COC(=O)/C=C/c1ccco1)c1c(N)n(Cc2ccccc2)c(=O)[nH]c1=O,.,.,.,.,13%[12.7 µM],.
Nc1[nH]c(=S)[nH]c(=O)c1N=Nc1c(Br)cc(S(N)(=O)=O)cc1Br,.,-1%[13.5 µM],.,.,.,.
COc1cc(/C=N/Nc2ccc(Cl)c(C(=O)O)c2)ccc1OC(=O)c1ccco1,-38%,?,-5%,.,22µM*,1%
COc1cc(/C=N/Nc2ccc(Cl)c(C(=O)O)c2)ccc1OCC(=O)N1C(C)CCCC1C (stereo not drawn),-12%,?,5%,.,50µM*,-23%
O=C(O)c1cc(N/N=C/c2ccc(-c3ccccc3)cc2)ccc1Cl,-68%,.,-20%,.,17%[0.501 µM],.
COc1cc(/C=N\NC(=O)OC(C)(C)C)ccc1OC(=O)c1ccco1,-22%,7%,4%,6%[46 µM],?,10%
COc1ccc(C(=O)Oc2ccc(/C=N/Nc3ccc(Cl)c(C(=O)O)c3)cc2OC)cc1,-50%,.,-13%,.,35µM*,.
CSc1ccc(/C=N/Nc2ccc(Cl)c(C(=O)O)c2)cc1,-51%,?,3%,.,10µM*,-29%
c1cc2c3c(c1)ccc1cccc(c13)C2,.,-5%,.,.,.,.
C=CCn1c(=O)c(C(=O)NCCNCC)c(O)c2ccccc21,-1%,-3%,-7%,-7%,?,?
CCn1c(=O)c(C(=O)NNC(=O)c2ccccc2)c(O)c2ccccc21,15%,.,26%,.,20%,.
CCCn1c(=O)c(C(=O)Nc2ccccc2C)c(O)c2ccccc21,-32%,.,35µM*,.,?,.
CCn1c(=O)c(C(=O)NCCN2CCCCC2)c(O)c2ccccc21,-15%,-3%,13%,?,56µM*,?
CCn1c(=O)c(-[n+]2ccccc2)c(O)c2ccccc21,-2%,25µM*,13µM*,4%,?,-22%
CCNCCNC(=O)c1c(O)c2ccccc2n(CC)c1=O,-7%,-1%,6%,2%,11µM*,?
CCN(C(=O)COC(=O)/C(C#N)=C/c1ccc(OC)cc1)C1CCS(=O)(=O)C1 (stereo not drawn),.,.,.,.,-43%,.
O=C(Nc1ccncc1)c1cccc(S(=O)(=O)N2CCCC2)c1,12%,.,7%,.,97%,.
O=C(C[n+]1ccc(C(=O)NCc2ccccc2)cc1)c1ccc(Cl)cc1,1%,.,2%,.,24%[12.7 µM],.
CC1CC(C)(C)NC(=S)N1CCCC(=O)N1CCN(c2ccccc2F)CC1 (stereo not drawn),-8%,?,9%,-11%,0%[59 µM],10%
Cc1cccc(NC(=O)CN2C(=S)NC(C)(C)CC2C)c1C (stereo not drawn),-6%,?,-23%,-10%,?,-1%
CCN(C(=O)CN1C(=S)NC(C)(C)CC1C)c1ccc(C)c(C)c1 (stereo not drawn),-3%,28µM*,-2%,0%[46 µM],-22%,-7%
CC(=O)c1cccc(NC(=O)CN2C(=S)NC(C)(C)CC2C)c1 (stereo not drawn),-1%,?,-36%,-13%[46 µM],32µM*,-7%
Cc1ccc(NC(=O)CN2C(=S)NC(C)(C)CC2C)cc1Cl (stereo not drawn),12%,?,6%,-12%[9.22 µM],16µM*,2%
CC1CC(C)(C)NC(=S)N1CCC(=O)N1CCc2ccccc21 (stereo not drawn),1%,?,5%,-1%[9.22 µM],45µM*,-8%
COc1ccc2c(c1)C(=O)[C@@H](OC(=O)NCc1ccco1)[C@H](c1ccc(OC)c(Br)c1)O2,.,?,4%,.,.,-11%

# Quoted from the listing.
# CCN(C(=O)CN1C(=S)NC(C)(C)CC1C)c1ccc(C)c(C)c1 (stereo not drawn) in Lamin A splicing = 0%[46 µM]
# COc1ccc2c(c1)C(=O)[C@@H](OC(=O)NCc1ccco1)[C@H](c1ccc(OC)c(Br)c1)O2 in Sfp PPTase inh = 4%

# Reformatted with tabs: 3 of the compounds above.
structure	miR-21 reporter	ALDH1A1 inh	Sfp PPTase inh	Lamin A splicing	G9a inh	JMJD2E inh
CCn1c(=O)c(C(=O)NCCN2CCCCC2)c(O)c2ccccc21	-15%	-3%	13%	?	56µM*	?
CC1CC(C)(C)NC(=S)N1CCC(=O)N1CCc2ccccc21 (stereo not drawn)	1%	?	5%	-1%[9.22 µM]	45µM*	-8%
COc1cc(/C=N/Nc2ccc(Cl)c(C(=O)O)c2)ccc1OC(=O)c1ccco1	-38%	?	-5%	.	22µM*	1%

# Source: PubChem (National Center for Advancing Translational Sciences (NCATS))
